Where two headings read alike, the source gives them in different places.
Test system: rats
Conditions: IM
[1] = dose 0.6 µM/kg, base and esters in sesame oil, HCl in 0.9% saline

Row | Structure (SMILES) | Analgesic duration [1] [h] | Analgesic duration (dose 0.3 µM/kg, sesame oil) [h]
1 | COC12CCC3(CC1C(C)(O)C(C)(C)C)C1Cc4ccc(OC(=O)C(C)(C)C)c5c4C3(CCN1CC1CC1)C2O5 (stereo not shown) | 48 | –
2 | COC12CCC3(CC1C(C)(O)C(C)(C)C)C1Cc4ccc(OC(=O)c5ccccc5)c5c4C3(CCN1CC1CC1)C2O5 (stereo not shown) | 72 | –
3 | COC12CCC3(CC1C(C)(O)C(C)(C)C)C1Cc4ccc(OC(=O)CCCCCCCCC(=O)Oc5ccc6c7c5OC5C8(OC)CCC9(CC8C(C)(O)C(C)(C)C)C(C6)N(CC6CC6)CCC759)c5c4C3(CCN1CC1CC1)C2O5 (stereo not shown) | – | 96
4 | CCCCCCCCCCCCCCCC(=O)Oc1ccc2c3c1OC1C4(OC)CCC5(CC4C(C)(O)C(C)(C)C)C(C2)N(CC2CC2)CCC315 (stereo not shown) | 96 | –
5 | CCCCCCCCCC(=O)Oc1ccc2c3c1OC1C4(OC)CCC5(CC4C(C)(O)C(C)(C)C)C(C2)N(CC2CC2)CCC315 (stereo not shown) | 96 | –
6 | CCCCCCC(=O)Oc1ccc2c3c1OC1C4(OC)CCC5(CC4C(C)(O)C(C)(C)C)C(C2)N(CC2CC2)CCC315 (stereo not shown) | 72 | –
7 | COC12CCC3(CC1C(C)(O)C(C)(C)C)C1Cc4ccc(OC(=O)CCCCCC(=O)Oc5ccc6c7c5OC5C8(OC)CCC9(CC8C(C)(O)C(C)(C)C)C(C6)N(CC6CC6)CCC759)c5c4C3(CCN1CC1CC1)C2O5 (stereo not shown) | – | 72

Reference: patent EP1422230B1 (priority 2002, dated 2004)
